Assay: physchem
Format: physicochemical
Conditions: acidic environment, pH 4
Protocol: Stability in acidic environment at 25° C. of the novel
antibiotics in comparison with erythromycin A
t 1/2 represents the half life time of the antibiotics as determined by
high pressure liquid phase chromatography (HPLC).

For `CC[C@H]1OC(=O)[C@H](C)[C@@H](O[C@H]2C[C@@](C)(OC)[C@@H](O)[C@H](C)O2)[C@H](C)[C@@H](O[C@@H]2O[C@H](C)C[C@H](N(C)C)[C@H]2O)[C@](C)(O)C[C@@H](C)C(=O)[C@H](C)[C@@H](O)[C@]1(C)O` [Erythromycin A, reference compound], which half-life is on record?
The half-life was 2 h.

— US4560662A, “Streptomyces antibioticus ATCC 31771 and process for obtaining same” (priority 1981, dated 1985)
